Reference: patent US5521088A, “Alcohol acetyltransferase genes and use thereof” (Kirin Beer Kabushiki Kaisha, priority 1992, dated 1996)

Amino acid sequences for entries named in this document (tags omitted). A change or cut given only in a name is not applied to a line headed by its entry.
UniProt P40353: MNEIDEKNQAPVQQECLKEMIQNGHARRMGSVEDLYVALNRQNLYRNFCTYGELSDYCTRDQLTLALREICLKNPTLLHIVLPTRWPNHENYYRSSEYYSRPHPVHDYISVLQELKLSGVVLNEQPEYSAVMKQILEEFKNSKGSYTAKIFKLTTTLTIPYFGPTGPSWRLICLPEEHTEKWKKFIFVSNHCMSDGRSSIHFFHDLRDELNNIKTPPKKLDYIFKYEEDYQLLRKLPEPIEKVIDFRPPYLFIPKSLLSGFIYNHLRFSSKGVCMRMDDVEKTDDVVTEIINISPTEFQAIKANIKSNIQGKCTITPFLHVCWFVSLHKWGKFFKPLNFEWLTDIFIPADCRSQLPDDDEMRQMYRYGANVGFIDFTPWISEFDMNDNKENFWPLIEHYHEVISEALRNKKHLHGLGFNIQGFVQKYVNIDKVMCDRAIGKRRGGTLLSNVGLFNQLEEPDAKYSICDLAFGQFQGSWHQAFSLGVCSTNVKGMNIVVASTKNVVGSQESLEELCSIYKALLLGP

These substances were tested against AATase (Saccharomyces cerevisiae, UniProt P40353, N391K/T84I) (assay: Effects of various inhibitors on AATase enzyme activity). Details: inhibitor 1 mM in reaction buffer; None = 100.
Assay type: biochemical

Substance | Relative activity (%)
BaCl2 | 73.7%
CUSO4 | 0%
CaCl2 | 87.7%
CdCl2 | 3.1%
CoCl2 | 37.6%
FeCl3 | 54.5%
HgCl2 | 0%
KCl | 98.6%
MgCl2 | 86.2%
MnCl2 | 53.3%
NiCl3 | 22.3%
SnCl2 | 52.0%
ZnCl2 | 12.7%
